# Measurements taken from US9193687B2 (priority 2007, dated 2015).
# Like-named read-outs stand apart in the source and are kept apart here.
# How the values were obtained:
# [1] = system: CCRF-CEM human lymphoblastic leukemia cells; experiment: cells; details: 72 h, read-out: Cytotoxicity IC50, CCRF-CEM
# [2] = system: CCRF-CEM human lymphoblastic leukemia cells; details: read-out: Cytotoxicity IC50, CCRF-CEM; Table 1; XTT, 72-hr incubation
# [3] = system: Human colon carcinoma HCT-116 cells; experiment: cells
# [4] = system: Human mammary carcinoma (MX-1) tumor cells; experiment: In vitro cytotoxicity, SRB assay, 72-hr incubation; details: read-out: Cytotoxicity IC50, MX-1
# [5] = HCT-116, read-out: Cytotoxicity IC50, HCT-116
smiles,measurement,setting,value
COc1ccc2nc(C)cc(Nc3cccc(NC(=O)Nc4ccc(N(CCCl)CCCl)cc4)c3)c2c1 [BO-1547],IC50,[1],240 nM
"CCOC(=O)Nc1cc(COC(=O)Oc2ccc(N(CCCl)CCCl)cc2)cc(Nc2c3ccccc3nc3ccccc23)c1 [BO-1065, carbonic acid 3-(acridin-9-yl-amino)-5-ethoxycarbonylaminobenzyl ester 4-[bis(2-chloroethyl)amino]phenyl ester]",IC50,[1],320 nM
Cc1cccc2c(Nc3cc(COC(=O)Nc4ccc(N(CCCl)CCCl)cc4)cc(NC(=O)OCC(C)C)c3)c3ccccc3nc12 [BO-1245],IC50,[2],750 nM
COc1ccc(Nc2c3ccccc3nc3c(C)cccc23)cc1NC(=O)Oc1ccc(N(CCCl)CCCl)cc1 [BO-1213],IC50,"[3]; HCT-116, 72 h, read-out: Cytotoxicity IC50, HCT-116",240 nM
Cc1ccc(Nc2c3ccccc3nc3c(C)cccc23)cc1NC(=O)Nc1ccc(N(CCCl)CCCl)cc1 [BO-1051],IC50,[4],240 nM
O=C(CN1CCCC1)Nc1ccc(NC(=O)Nc2ccc(N(CCCl)CCCl)cc2)cc1 [BO-2093],IC50,[3]; [5],1770 nM
O=C(CCN1CCCCC1)Nc1ccc(NC(=O)Nc2ccc(N(CCCl)CCCl)cc2)cc1 [BO-2057],IC50,[3]; [5],1770 nM
